Experimental findings from ChEMBL document CHEMBL4808240, “Design, synthesis and analysis of novel sphingosine kinase-1 inhibitors to improve oral bioavailability” (Bioorg Med Chem Lett, 2021) are described below.

Amino acid sequences for entries named in this document (tags omitted).
UniProt Q9NYA1, whole entry: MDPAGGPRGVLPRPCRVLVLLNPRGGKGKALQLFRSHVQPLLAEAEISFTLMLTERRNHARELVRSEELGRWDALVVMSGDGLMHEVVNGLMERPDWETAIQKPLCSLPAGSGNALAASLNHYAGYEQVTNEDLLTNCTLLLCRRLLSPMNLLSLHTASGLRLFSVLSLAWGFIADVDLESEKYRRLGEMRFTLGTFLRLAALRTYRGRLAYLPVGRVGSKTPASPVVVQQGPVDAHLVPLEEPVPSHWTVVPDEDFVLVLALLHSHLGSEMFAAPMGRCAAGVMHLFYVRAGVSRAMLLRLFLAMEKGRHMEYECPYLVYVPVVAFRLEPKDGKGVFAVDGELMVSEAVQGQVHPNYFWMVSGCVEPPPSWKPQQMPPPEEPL

In the experiment the target is Sphingosine kinase 1 (Homo sapiens, UniProt Q9NYA1). The experiment is described as follows: Inhibition of recombinant full length GST-tagged human SPHK1 expressed in baculovirus expression system incubated for 1 hr in presence of ATP by Alexa Fluor 647 tracer based Adapta assay relative to control. The settings on record: concentration not given here.

Molecules are shown by their SMILES.

One may read the inhibition as the drop in the measured response relative to a control, in per cent. On to `O=C(N/N=C/c1ccccc1O)c1cc(-c2ccc3ccccc3c2)n[nH]1`, for which the inhibition was -6%.

As for `O=C(N/N=C/c1ccc(O)cc1)c1cc(-c2ccc3ccccc3c2)n[nH]1`, the inhibition was determined as 17%.

Turning to `COc1ccc(/C=N/NC(=O)c2cc(-c3ccc4ccccc4c3)[nH]n2)cc1OC`, the inhibition was found to be 57%.

In the case of `O=C(N/N=C/c1cccc(O)c1)c1cc(-c2ccc3ccccc3c2)n[nH]1`, the inhibition came out at 10%.

Regarding `O=C(N/N=C/c1ccc2c(c1)OCCO2)c1cc(-c2ccc3ccccc3c2)[nH]n1`, the inhibition was 1%.

`O=C(N/N=C/c1cccc([N+](=O)[O-])c1)c1cc(-c2ccc3ccccc3c2)[nH]n1`: the inhibition is -2%.

Regarding `COc1ccccc1/C=N/NC(=O)c1cc(-c2ccc3ccccc3c2)[nH]n1`, the inhibition was found to be 4%.

Regarding `O=C(N/N=C/c1cccnc1)c1cc(-c2ccc3ccccc3c2)[nH]n1`, the inhibition is 18%.

Turning to `O=C(N/N=C/c1cccc2ccccc12)c1cc(-c2ccc3ccccc3c2)[nH]n1`, the inhibition is -7%.

Take `COc1ccc(/C=N/NC(=O)c2cc(-c3ccc4ccccc4c3)[nH]n2)cc1`: the inhibition is -2%.

For the molecule `COc1ccc2ccccc2c1/C=N/NC(=O)c1cc(-c2ccc3ccccc3c2)[nH]n1`, the inhibition amounted to 6%.

As for `O=C(N/N=C/C1CCCCC1)c1cc(-c2ccc3ccccc3c2)[nH]n1`, the inhibition was -9%.

Regarding `COc1cccc(/C=N/NC(=O)c2cc(-c3ccc4ccccc4c3)[nH]n2)c1`, the inhibition was -3%.

In the case of `O=C(N/N=C/c1ccccc1)c1cc(-c2ccc3ccccc3c2)[nH]n1`, the inhibition stood at 10%.
